Test results from patent US20230088127A1, “ISOTOPES OF ALPHA KET[…] RELATED COMPOUNDS AND THEIR USE IN HYPE[…]” (priority 2020, published 2023).

What was measured:
[1] = Hypersense DNP polarizer, 3.35 T, 1.45-1.5 K; data not shown
[2] = system: HCT116 IDH1 R132H cells; conditions: for cell permeability: HCT116 R132H cells, FIG. 5
[3] = PAMPA, dodecane membrane with 2% lectin, 24 hours at 37° C., FIG. 7A
[4] = system: lactate dehydrogenase; conditions: purified lactate dehydrogenase, Hypersense/preclinical 3T MRI, FIG. 3

Molecule	time required to polarize fully [1]	cell permeability [2]	increase in permeability over dimethyl-α-KG (DM-α-KG) [3]	increase in permeability over α-KG [3]	detection of [1-13C]-2-HG produced in IDH1 mutant cells ([2]; hyperpolarized probe added directly before HP-13C-MRI, FIG. 4)	detection of [1-13C]-2-HG formed by LDH enzymes [4]
CCOC(=O)CCC(=O)C(=O)OCC [DE-[1-^13C]-α-KG, Diethyl 2-oxopentanedioate-5-^12C-1-^13C]	two	better permeability	~5 fold	90 fold		
O=C(CC[12C](=O)O)[13C](=O)O [[1-^13C-5-^12C]-α-KG, 2—Oxopentanedioic-5-^12C-1-^13C acid]	five				detected cleanly	allows for detection of [1-^13C]-2-HG
alpha-ketoglutarate [α-KG, reference compound]		low				
